Results taken from US20080188457A1, “Modulation of Neurogenesis with Biguanides and GSK3-beta Agents” (BrainCells, Inc., priority 2007, published 2008).

System: human neural stem cells (hNSCs)
Experiment: Neuronal differentiation of human neural stem cells (TUJ-1 antibody staining)
Conditions: FIG. 1; metformin CRC 0.01 μM to 31.6 μM, azakenpaullone CRC 0.001 μM to 3.2 μM, alone or in combination; basal media values subtracted

Row | SMILES | maximum neuronal differentiation percent of positive control [%]
1 | O=C1Cc2c([nH]c3ccc(Br)cc23)-c2ncccc2N1 [azakenpaullone] | 120
2 | CN(C)C(=N)NC(=N)N [metformin, 1,1-Dimethylbiguanide] | 10
